For assay [1], the target named is T1, Acetylcholinesterase (Homo sapiens, UniProt P22303). Kind of assay: Reversible inhibition of acetylcholinesterase (AChE) by 50 % in human erythrocytes.
Assay [2] has as its target T1, Acetylcholinesterase. The experiment in a line: Concentration of compound that reversibly inhibits acetylcholinesterase (AChE) by 50 %.

By UniProt entry, the sequences of proteins in these tests, tags left out. Residues count along the entry.
UniProt P22303, 32-614 limits assumed: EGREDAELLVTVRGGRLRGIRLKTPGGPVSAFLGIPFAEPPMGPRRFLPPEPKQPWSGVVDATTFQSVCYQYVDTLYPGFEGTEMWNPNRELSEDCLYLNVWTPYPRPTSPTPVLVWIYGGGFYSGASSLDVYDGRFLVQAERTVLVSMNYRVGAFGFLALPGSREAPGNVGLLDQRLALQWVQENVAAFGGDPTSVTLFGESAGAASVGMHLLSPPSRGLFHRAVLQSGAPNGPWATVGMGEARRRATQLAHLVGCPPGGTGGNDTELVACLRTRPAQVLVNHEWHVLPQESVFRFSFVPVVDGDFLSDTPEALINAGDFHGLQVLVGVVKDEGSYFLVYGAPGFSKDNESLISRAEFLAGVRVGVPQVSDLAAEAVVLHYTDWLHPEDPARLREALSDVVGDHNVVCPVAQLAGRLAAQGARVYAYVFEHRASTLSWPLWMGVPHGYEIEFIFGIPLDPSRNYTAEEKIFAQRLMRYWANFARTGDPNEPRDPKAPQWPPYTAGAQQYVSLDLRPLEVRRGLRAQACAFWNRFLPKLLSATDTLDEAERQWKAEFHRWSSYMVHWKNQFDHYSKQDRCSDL

Our source for the IC50 values is ChEMBL document CHEMBL1124682, “Quaternary salts of 2-[(hydroxyimino)methyl]imidazole. 3. Synthesis and evaluation of (alkenyloxy)-, (alkynyloxy)-, and (aralkyloxy)methyl quaternarized 2-[(hydroxyimino)methyl]-1-alkylimidazolium halides as reactivators and therapy for soman intoxication” (1989).

SMILES strings stand for the structures. pIC50: −log10 of the molar value.

By pIC50 is commonly meant the IC50 on a negative log10 scale, so that one unit is a factor of ten. Low values mean a large IC50, high ones a small IC50.

In assay [1], `C#CCOC[n+]1ccn(C)c1/C=N/O` had a pIC50 of 4.66.
Still for that read-out and setting: then `C#CC(C)OC[n+]1ccn(C)c1/C=N/O` (stereo not given), with 4.92; and `CC#CCCOC[n+]1ccn(C)c1/C=N/O`, with 4.11; and `C#CCC(C)OC[n+]1ccn(C)c1/C=N/O` (stereo not given), with 5.06.
For `C#CC(CC)OC[n+]1ccn(C)c1/C=N/O` (stereo not given), in assay [1], the pIC50 was 5.11.
Same read-out and setting: then `C#CC(C)(C)OC[n+]1ccn(C)c1/C=N/O`, with 4.62.
Turning to `C#CCCOC[n+]1ccc(/C=N/O)cc1`, in assay [2], the pIC50 is 4.02.
For `C#CC1(OC[n+]2ccn(C)c2/C=N/O)CCCC1`, in assay [1], the pIC50 was 4.62.
The same measure, in the same setting: then `C#CCC(CCC)OC[n+]1ccn(C)c1/C=N/O` (stereo not given), with 5.28.
The same measure, in the same setting: then `C#CCCCOC[n+]1ccn(C)c1/C=N/O`, with 4.55.
The same measure, in the same setting: then `C#CC1CCCCC1OC[n+]1ccn(C)c1/C=N/O` (stereo not given), with 4.69; and `C#CCCOC[n+]1ccn(C)c1/C=N/O`, with 4.84.
As for `C#CCCCC[n+]1ccn(C)c1/C=N/O`, in assay [2], the pIC50 was 5.07.
In assay [1], `C#CC(C)C(C)OC[n+]1ccn(C)c1/C=N/O` (stereo not given) had a pIC50 of 4.90.
The same measure, in the same setting: then `C#CC(CCC)OC[n+]1ccn(C)c1/C=N/O` (stereo not given), with 5.08.
